Patent US20130123326A1, “ALLOSTERIC BINDING COMPOUNDS” (REGION MIDTJYLLAND, priority 2009, published 2013)

The chains behind the UniProt entries cited, without tags or fusion partners.
UniProt P31645, whole entry: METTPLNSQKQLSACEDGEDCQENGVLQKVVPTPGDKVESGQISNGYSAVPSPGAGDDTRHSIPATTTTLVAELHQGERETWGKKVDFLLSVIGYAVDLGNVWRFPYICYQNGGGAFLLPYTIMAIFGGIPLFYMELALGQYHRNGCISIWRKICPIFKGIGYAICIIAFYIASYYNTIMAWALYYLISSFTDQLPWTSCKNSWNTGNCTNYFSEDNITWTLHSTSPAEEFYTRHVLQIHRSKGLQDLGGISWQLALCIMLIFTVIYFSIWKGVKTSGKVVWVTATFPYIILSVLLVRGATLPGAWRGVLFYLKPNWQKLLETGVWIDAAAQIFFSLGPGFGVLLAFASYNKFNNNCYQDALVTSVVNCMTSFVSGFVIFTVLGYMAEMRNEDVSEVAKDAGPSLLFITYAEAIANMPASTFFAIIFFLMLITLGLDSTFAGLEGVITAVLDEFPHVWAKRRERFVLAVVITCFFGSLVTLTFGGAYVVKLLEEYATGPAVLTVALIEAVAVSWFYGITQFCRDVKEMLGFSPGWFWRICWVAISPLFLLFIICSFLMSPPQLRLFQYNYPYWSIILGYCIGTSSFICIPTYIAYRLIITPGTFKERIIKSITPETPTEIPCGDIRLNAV

Molecular target: hSERT (Homo sapiens, UniProt P31645)
Experiment: Dissociation assay with [3H]-citalopram and hSERT membrane preparations
Type: binding
Procedure: Dulbecco's modified Eagle's medium, fetal bovine serum, trypsin, and penicillin/streptomycin were purchased from Invitrogen. Cell culture flasks were from NUNC. MicroScint-20 scintillation mixture was from Packard. [^3H]-Citalopram (85 Ci/mmol) was a gift from H. Lundbeck A/S (Valby, Denmark). Fugene-6 transfection reagent was from Roche Molecular Biochemicals. All chemicals are commercially available. Stock solutions of the allosteric ligands were prepared as 100 mM in EtOH.
Cell Culture and Expression of hSERT in HEK-293 MSR cells.
HEK-293 MSR cells were maintained in Dulbecco's modified Eagle's medium (DMEM) supplemented with 10% fetal calf serum, 0.1 mM nonessential amino acids, 600 μg/mL Geneticin, 100 μg/ml streptomycin, and 100 units/ml penicillin at 37° C. and 5% CO2 in a humidified atmosphere. The pcDNA3 plasmid vector containing the hSERT gene was used for transfection. […]
SERT-[^3H]-citalopram complex was formed by incubating hSERT membrane preparation and radioligand in buffer 3 during a 60 min incubation at 4° C. […] Bound radioactivity was determined by direct counting of plates using a Packard Bell microplate scintillation counter. […]
The relative off-rate is expressed as the off-rate of the radioligand at a given concentration of allosteric compound, normalized to the off-rate of radioligand in the absence of allosteric compound. […]

## 2-Dimethylaminoethyl-1-Naphthyl Sulfide [Example 19]
Concentration of allosteric compound inducing 50% attenuation of the off-rate of the radioligand from SERT, 10 μM fluoxetine in dissociation buffer
  EC50: 6.4 µM
Estimated upper plateau of sigmoidal response curve: how many folds the off-rate of bound radioligand from SERT can be attenuated, N/A = No activity
  Max. Stability (maximum stabilization factor): 5.8
